For test [1], the target named is T1, Neutrophil elastase (Homo sapiens, UniProt P08246).
T1 sequence (P08246 whole entry): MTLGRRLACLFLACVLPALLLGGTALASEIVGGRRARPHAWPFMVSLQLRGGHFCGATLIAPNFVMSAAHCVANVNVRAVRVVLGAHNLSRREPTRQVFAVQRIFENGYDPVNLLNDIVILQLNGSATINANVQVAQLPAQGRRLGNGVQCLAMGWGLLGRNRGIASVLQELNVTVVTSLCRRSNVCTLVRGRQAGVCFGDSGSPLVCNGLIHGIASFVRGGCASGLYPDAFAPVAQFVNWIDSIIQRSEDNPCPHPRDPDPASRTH
The test is described as follows: Binding affinity towards human leukocyte elastase at 10e-7 M. The method, boiled down: (§1)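 HLE activity followed as rise in absorbance at 410 nm from nitroanilide release; substrate (methoxysuccinyl)Ala-Ala-Pro-Val nitroanilide at 10⁻⁴ M. Run in 0.2 M Tris, pH 8.0, 30 °C. Inhibitors and substrate dissolved in DMSO, which made up 10% of the final medium. Enzyme titrated to give 0.12 OD unit/min per 10 mm path.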

The target in test [2] is T1, Neutrophil elastase. As to the kind of experiment: Inhibitory activity against human leukocyte elastase at 10e-7 M. The method, boiled down:
as §1

This note sets out measurements from ChEMBL document CHEMBL1124104, “(Acyloxy)benzophenones and (acyloxy)-4-pyrones. A new class of inhibitors of human neutrophil elastase” (J Med Chem, 1988).

With `CC(C)(C)C(=O)Oc1ccc(S(=O)(=O)c2ccc(OC(=O)C(C)(C)C)cc2)cc1`, the inhibition constant (Ki) in test [1] turned out to be 200 nM.
Regarding `CC(C)(C)C(=O)Oc1ccc(/N=N/c2ccc(OC(=O)C(C)(C)C)cc2)cc1`, the midpoint of inhibition in test [2], the IC50, lay at 130 nM.
